Experiments:
[1] = tested on: HEK 293 human embryonic kidney cells; test: Cell viability test (MTT cytotoxicity); assay type: cell-based; details: HEK 293, 48 h, concentration range tested
Procedure: Cell viability test. Cytotoxicity of different components was tested through MTT assays. HEK 293 human embryonic kidney cells were seeded onto a 96-well plate (1×10^4 cells/well) and cultured overnight. The cells were then treated with various polymers or PDCs with serial dilutions for 48 h and their viability was measured by a standard MTT assay. Data were collected by monitoring the difference between the absorbance at 560 nm and 650 nm using a GloMax-Multi Microplate Multimode Reader (Promega, Wis., USA).

human red blood cells = test: Hemolysis assay; assay type: cell-based; details: 37° C., 1 h
Procedure: Hemolysis assay. […] The antibacterial polymer and PDC with different charges were serial diluted with PBS and placed in 96-well plates (100 μL/well). The blood cell suspension (10 μL/well) was added into the wells and incubated at 37° C. for 1 h to allow the complete hemolysis process. […] Following centrifugation at 3000 rpm for 7 min, the supernatant (70 μL/well) was transferred to another clean 96-well plate. OD 560 in each well was monitored by a microplate reader, and hemolysis was calculated using the following formula: […]

Substance	cytotoxicity (MTT), in words [1]	hemolytic activity, in words (human red blood cells)
Hex-Cys-Cys-DET-strep [Positively-charged PDC]	limited toxicity at a high concentration of 2,000 μg/mL	only induced hemolysis at a high level of 10 mg/mL
Hex-Cys-Cys-DET-strep-DMA [Neutralized PDC]	did not show any cytotoxicity	did not show any hemolytic activity

Source: patent US11911406B2, “PH-responsive polymer-drug conjugates for enhanced antibacterial efficacy” (priority 2020, dated 2024)
